In patent publication US5731334A, “Method for treating cancer using taxoid onium salt prodrugs” (priority 1995, dated 1998):

Tests used:
[1] = Plasma stability and prodrug reversion (ethyl acetate extraction, HPLC); details: human plasma, 37° C.; Table II
[2] = 1-2 hour i.v. infusion every 2 or 3 weeks; cited from earlier work

CC(=O)O[C@@]12CO[C@@H]1C[C@H](O)[C@@]1(C)C(=O)[C@H](O)C3=C(C)[C@@H](OC(=O)[C@H](O)[C@@H](NC(=O)OC(C)(C)C)c4ccccc4)C[C@@](O)([C@@H](OC(=O)c4ccccc4)[C@H]21)C3(C)C [Compound 5, N-debenzoyl-N-tert-butoxycarbonyl-10-deacetyl Taxol, reference compound]
Plasma Stability t1/2 [1]: stable | limiting toxicity [2]: dose-dependent, reversible neutorpenia
